Measurements: PMC8905628, “Integrin α6-Targeted Molecular Imaging of Central Nervous System Leukemia in Mice” (Frontiers in Bioengineering and Biotechnology, 2022)

System: NALM6-luciferase tumor-bearing mice
Assay: PET imaging of NALM6-luciferase tumor-bearing mice (CNS-L)
Parameters: species or system NOD/SCID mice
Details: mouse, in vivo

## OC[C@H]1OC(O)[C@H](F)[C@@H](O)[C@@H]1O (some centres unmarked) [^18F-FDG, ^18F-fluorodeoxyglucose]
  distribution of radioactivity in the head: diffuse enhanced radioactivity in the brain tissue
  tumor-to-background ratio: 0.58
